The assay deals with Plasmodium falciparum. The experiment in a line: Ratio of compound Ki to pyrimethamine Ki for competitive inhibition of wild type Plasmodium falciparum dihydrofolate reductase expressed in Escherichia coli BL21(DE3)pLysS using dihydrofolate as substrate.

Each structure is given as a SMILES string.

`Cl.Nc1nc(N)c(-c2cccc(Cl)c2)c(CCCOc2ccccc2)n1`: the Ratio Ki amounted to 0.4.
With `Cl.Nc1nc(N)c(-c2ccccc2)c(CCCCOc2cccc(OCC(=O)O)c2)n1`, the Ratio Ki amounted to 0.83.
For `Cl.Nc1nc(N)c(-c2ccccc2)c(CCCCCOc2ccccc2)n1`, the Ratio Ki was determined as 0.5.

The values above are taken from ChEMBL document CHEMBL4406897 (Bioorg Med Chem, 2019).
